From US20250002435A1, “ARYLATED FENCHONE DERIVATIVES, COMPOSITIONS COMPRISING THEM, PROCESSES FOR THEIR PREPARATION AND USES THEREOF” (priority 2021, published 2025)

Sequences of proteins named here, by UniProt entry; tags and fusion partners are left off.
UniProt P34972, whole entry: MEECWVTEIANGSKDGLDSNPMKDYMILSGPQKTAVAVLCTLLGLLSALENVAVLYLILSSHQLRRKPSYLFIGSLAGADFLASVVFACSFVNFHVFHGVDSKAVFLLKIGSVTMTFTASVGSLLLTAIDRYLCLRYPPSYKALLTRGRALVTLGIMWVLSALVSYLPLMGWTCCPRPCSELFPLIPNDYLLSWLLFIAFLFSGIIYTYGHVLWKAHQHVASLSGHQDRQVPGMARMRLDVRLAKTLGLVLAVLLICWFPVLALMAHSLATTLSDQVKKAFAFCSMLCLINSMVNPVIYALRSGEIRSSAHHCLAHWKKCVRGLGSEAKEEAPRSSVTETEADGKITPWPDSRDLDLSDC

Columns and labels:
hCB2R [1] = target: T1, hCB2R (Homo sapiens (Human), UniProt P34972); test: [3H]CP-55,940 competition displacement binding, membranes of CHO-K1 cells expressing human CB2R
Experimental: Affinity for Cannabinoid Receptors. The compounds were further characterized using a radioligand binding assay to determine their affinities for CB1R and CB2R based on each test compound's ability to displace the radiolabeled CB1R/CB2R agonist CP-55,940 from membranes prepared from a mouse brain (a source of CB1R) and membranes of cells expressing the human CB2R. […] Therefore, the compounds were assayed using membranes from CHO-K1 cells expressing the human CB2R (hCB2R).
Membranes from cells expressing human CB2R were purchased from Charles River, (Cat #A308; Ohio, US). Solutions of test compounds ranging from 0.1 nM to 10 mM were prepared in DMSO. The desired amount of membrane preparation was diluted with ice-cold assay buffer (50 mM Tris-HCl, 2.5 mM EDTA, 5 mM MgCl2, 0.1% BSA, pH 7.4) and was vortexed. […] The assays were incubated for 90 minutes at 30° C. and then immediately filtered on WHATMAN GF/B FilterPaper (Fired) using a Brandel M-24R Harvester followed by six washes with ice cold wash buffer (50 mM Tris-HCl, 2.5 mM EDTA, 5 mM MgCl2, 0.1% BSA, pH 7.4). Radioactivity was detected by adding the FilterPaper directly to the ULTIMA GOLD scintillation cocktail (PerkinElmer), incubation at 20° C. for 60 min and then counted using a Tri-Carb 4910TR liquid scintillation counter.

hCB2R [2] = target: T1, hCB2R; test: [35S]GTPγS binding assay, hCB2R CHO cell membranes; format: biochemical; details: [35S]GTPγS binding to hCB2R; two independent experiments in triplicate
Experimental: Functional Characterization.
The method used for measuring agonist-stimulated binding of [^35S]GTPγS was based on a described protocol. The assays were carried out with GTPγS assay buffer (50 mM Tris HCl (pH 7.4), 0.2 mM EGTA, 9 mM MgCl2, 150 mM NaCl, 1 mg/ml BSA). Briefly, membranes (5 μg protein) were incubated in assay buffer containing 100 μM GDP, 0.05 nM [^35S]GTPγS, test compounds at various concentrations in siliconized glass tubes. Bound ligand was separated from free ligand by vacuum filtration. Nonspecific binding was determined using 10 μM GTPS. Basal binding was assayed in the absence of the ligand and in the presence of GDP.

| Compound | Ki (hCB2R [1]) [nM] | Ki (hCB2R [1]; displacement of [3H]CP-55,940) [nM] | EC50 (hCB2R [2]) [nM] |
| --- | --- | --- | --- |
| CCCCCCCCc1ccc(OC)c(C2(O)C3(C)CCC(C3)C2(C)C)c1 (single isomer, unassigned) [Compound 3h, 2-(2′-methoxy-5′-octylphenyl)-1,3,3-trimethylbicyclo[2.2.1]heptan-2-ol] | 494 |  |  |
| CCCCCCCCc1ccc(OC)c(C2(O)C3(C)CCC(C3)C2(C)C)c1 (single isomer, unassigned) [Compound 3g, 2-(2′-methoxy-5′-octylphenyl)-1,3,3-trimethylbicyclo[2.2.1]heptan-2-ol] |  | 1650 |  |
| CCCCCCC(C)(C)c1cc(OC)c([C@@H]2C=C(CO)[C@@H]3C[C@H]2C3(C)C)c(OC)c1 [HU-308, reference compound] |  | 1.16 | 1.01 |

Read-outs that look alike come from different tables or passages of the source.
